{
  "source": "patent US9334278B2",
  "about": "“Pyrrolo[2,3-B]pyrazines as SYK inhibitors” (Hoffmann-La Roche Inc., priority 2012, dated 2016)",
  "target": "recombinant human SYK360-635 (Spleen Tyrosine Kinase) (Homo sapiens (Human), UniProt P43405)",
  "experiment": "SYK kinase assay (33P filtration, IC50 of SYK inhibition)",
  "details": "read-out: ENZYME_FILTRATION_IC50, SYK 0.5 nM, ATP 20 μM",
  "data": [
    {"smiles": "Cc1nc2[nH]cc(C(=O)NC(C)(C)C)c2nc1Nc1cnn(C)c1", "note": "[Compound I-34, 3-Methyl-2-(1-methyl-1H-pyrazol-4-ylamino)-5H-pyrrolo[2,3-b]pyrazine-7-carboxylic acid tert-butylamide]", "values": [
      {"measurement": "IC50", "result": 1.07, "unit": "µM"}
    ]}
  ]
}
